Experimental data reported in paper PMC10860701 (ACS Medicinal Chemistry Letters, 2024).

Test system: THP-1 cells
Experiment: Measurement of cellular NAD+ levels in THP-1 cell cultures
Type: cell-based, human
Details: for potency in THP-1 cell cultures relative to NP-A3-B2: full concentration-response, NAD+

Row | SMILES | potency in THP-1 cell cultures relative to NP-A3-B2 | concentration response for FK866 in the presence of compound (THP-1 NAD+, Figure 3B)
1 | COc1ccc(CN(CCC2(C(C)C)CCOC(C)(C)C2)C(=O)c2ccsc2)cc1 (stereo not drawn) [JGB-1-127] | improved potency | –
2 | COc1ccc(CN(CCC2(C(C)C)CCOC(C)(C)C2)C(=O)c2cccs2)cc1 (stereo not drawn) [JGB-1-137] | improved potency | right-shifted
